Patent US5328902A, “7-(substituted)-9-[(substituted glycyl)amido]-6-demethyl-6-deoxytetracyclines” (American Cyanamid Co., priority 1992, dated 1994)

Tested on: TetM S30 (tetM protected ribosomes, derivative of MRE600 containing the tetM determinant)
Test: E. coli in vitro protein translation system, TetM S30
Settings: for inhibition of protein synthesis occurring on tetM protected ribosomes: coupled transcription and translation system

Molecule | % Inhibition TetM S30 (Conc. 0.06 mg/ml) [%] | % Inhibition TetM S30 (Conc. 1.0 mg/ml) [%] | inhibition of protein synthesis occurring on tetM protected ribosomes
[4S-(4alpha,12aalpha)]-4,7-Bis(dimethylamino)-1,4,4a,5,5a,6,11,12a-octahydro-3,10, 12,12a-tetrahydroxy-1,11-dioxo-9-[[(2-propenylamino)acetyl]amino]-2-naphthacenecarboxamide dihydrochloride | 83 | 98 | effective at inhibiting
[4S-(4alpha,12aalpha)]-9-[[[(2,2-Diethoxyethyl)amino]acetyl]amino]-4,7-bis(dimethylamino)-1,4,4a,5,5a,6,11,12a-octahydro-3,10, 12,12a-tetrahydroxy-1,11-dioxo-2-naphthacenecarboxamide dihydrochloride [Compound C] | 65 | 96 | effective at inhibiting
CC1CCN(CC(=O)Nc2cc(N(C)C)c3c(c2O)C(=O)C2=C(O)C4(O)C(=O)C(C(N)=O)=C(O)C(N(C)C)C4CC2C3)CC1.Cl.Cl (stereo not drawn) [G, [7S-(7alpha,10aalpha)]-N-[9-(Aminocarbonyl)4,7-bis(dimethylamino)-5,5a,6,6a,7,10,10a,12-octahydro-1,8,10a,ll-tetrahydroxy-10,12-dioxo-2-naphthacenyl]-4-methyl-l-piperidineacetamide dihydrochloride] | 83 | 99 | effective at inhibiting
[4S-(4alpha,12aalpha)]-4,7-Bis(dimethylamino)-1,4,4a,5,5a,6,11,12a-octahydro-3,10, 12,12a-tetrahydroxy-9-[[[(3-methoxypropyl)amino]acetyl]amino]-1,11-dioxo-2-naphthacenecarboxamide dihydrochloride | 85 |  | effective at inhibiting
CN(C)c1ccc(O)c2c1C[C@H]1C[C@H]3[C@H](N(C)C)C(O)=C(C(N)=O)C(=O)[C@@]3(O)C(O)=C1C2=O [O, Minocycline, reference compound] | 0 |  | unable to inhibit
[4S-(4alpha,12aalpha)]-4,7-Bis(dimethylamino-1,4,4a,5,5a,6,11,12a-octahydro-3,10, 12,12a-tetrahydroxy-9-[[[(2-(methoxyethyl)amino]acetyl]amino]-1,11-dioxo-2-naphthacenecarboxamide dihydrochloride | 91 | 97 | effective at inhibiting
